The values that follow come from PubChem BioAssay (NCI).

Several values for one entry are separate records, joined by “and”; a condition that tells them apart may be missing. Equal entries are not always repeated. This is a selection; strong and weak results do not stand in their true shares. Some of these compounds have results that are not shown, active ones among them.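 For each line, cells grew in 96-well plates with the test compound present at a single concentration for 48 hours.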 Activity calls are given as the source filed them. How the source made its calls: active means growth percent below 10; inactive means the rest.

One experiment deals with SF-539 CNS. The experiment is described as follows: NCI-60 one-dose screen, 48 h (100 = growth as untreated, 0 = no growth, -100 = all killed). The settings on record: 10 µM.
Consider `N#CC(C#N)=Cc1cccc(Br)c1`, for which the growth is inactive: 100%.

`CC(=O)CI`: the growth is inactive: 102%.

As for `ClCCN(CCCl)Cc1ccc(Cl)c(Cl)c1`, the growth is inactive: 101%.

Consider `CCCN(CCCl)CCCl`, for which the growth is inactive: 102%.

For the compound `ClCCN(CCCl)C1CCCCC1`, the growth was inactive: 93.9%.

Consider `BrCCN(CCBr)Cc1ccccc1`, for which the growth was inactive: 98%.

For the compound `N#CC(C#N)=Cc1ccc(Br)cc1`, the growth is inactive: 112% and inactive: 118%.

With `Cc1cc2nc(CN(CCCl)CCCl)[nH]c2cc1C`, the growth is inactive: 72.6%.

In the case of `COc1ccc(N=C=S)cc1CN(CCCl)CCCl`, the growth was inactive: 74.4%.

Consider `CCNCCCl`, for which the growth is inactive: 94.1%.

Consider `N#CC(C#N)=Cc1ccccc1Cl`, for which the growth is inactive: 113%.

Regarding `CC[N+](C)(C)Cc1cccc(Cc2ccccc2)c1OC(=O)N(C)C`, the growth is inactive: 101%.

Consider `COCc1c(CN(CCCl)CCCl)cnc(C)c1O`, for which the growth is inactive: 89.3%.

Turning to `ClCCN(CCCl)Cc1ccsc1Br`, the growth was inactive: 87.7%.

Turning to `ClCCN(CCCl)C1c2ccccc2-c2ccccc21`, the growth is inactive: 90.3%.

As to `CN(CCBr)CCBr`, the growth is inactive: 93.9%.

As for `CCOc1ccc([N+](=O)[O-])cc1CN(CCCl)CCCl`, the growth is inactive: 95.7%.

Take `ClCCCCCC(CCl)NCCCl` (stereo not given): the growth was inactive: 81%.

Regarding `COc1ccc([N+](=O)[O-])cc1CN(CCCl)CCCl`, the growth was inactive: 94.9%.

As to `CC(C)(C)N(CCCl)CCCl`, the growth was inactive: 95.2%.

Take `O=C(OCCN1CCCC1)C(O)(c1ccccc1)c1ccccc1`: the growth was inactive: 105%.

Consider `ClCCN(CCCl)Cc1cc(Cl)cc(Cl)c1`, for which the growth was inactive: 62.6%.

Turning to `CN(C)CCOC(=O)C(O)(c1ccccc1)c1ccccc1`, the growth is inactive: 96.4%.

Turning to `Fc1cccc(CN(CCCl)CCCl)c1`, the growth was inactive: 91.7%.

The next experiment relates to UACC-257 melanoma. Described as above. The following applies: 10 µM.
Take `N#CC(C#N)=Cc1cccc(Br)c1`: the growth was inactive: 108%.

For `CC(=O)CI`, the growth is inactive: 102%.

For the compound `ClCCN(CCCl)Cc1ccc(Cl)c(Cl)c1`, the growth was inactive: 95.2%.

`CCCN(CCCl)CCCl`: the growth is inactive: 95.1%.

With `ClCCN(CCCl)C1CCCCC1`, the growth is inactive: 106%.

Turning to `BrCCN(CCBr)Cc1ccccc1`, the growth was inactive: 112%.

As for `N#CC(C#N)=Cc1ccc(Br)cc1`, the growth is inactive: 101% and inactive: 103%.

Consider `Cc1cc2nc(CN(CCCl)CCCl)[nH]c2cc1C`, for which the growth is inactive: 87.5%.

Consider `COc1ccc(N=C=S)cc1CN(CCCl)CCCl`, for which the growth was inactive: 78.7%.

For `CCNCCCl`, the growth was inactive: 105%.

Consider `N#CC(C#N)=Cc1ccccc1Cl`, for which the growth is inactive: 105%.

In the case of `CC[N+](C)(C)Cc1cccc(Cc2ccccc2)c1OC(=O)N(C)C`, the growth was inactive: 93.6%.

Take `COCc1c(CN(CCCl)CCCl)cnc(C)c1O`: the growth was inactive: 107%.

Consider `ClCCN(CCCl)Cc1ccsc1Br`, for which the growth was inactive: 83.1%.

On to `ClCCN(CCCl)C1c2ccccc2-c2ccccc21`, for which the growth is inactive: 88.1%.

In the case of `CN(CCBr)CCBr`, the growth was inactive: 97%.

On to `ClCCCCCC(CCl)NCCCl` (stereo not given), for which the growth was inactive: 94.7%.

On to `CC(C)(C)N(CCCl)CCCl`, for which the growth was inactive: 84.8%.

Consider `ClCCN(CCCl)Cc1cc(Cl)cc(Cl)c1`, for which the growth is inactive: 70.7%.

Consider `CN(C)CCOC(=O)C(O)(c1ccccc1)c1ccccc1`, for which the growth is inactive: 109%.

As for `Fc1cccc(CN(CCCl)CCCl)c1`, the growth was inactive: 95.3%.
